The record followed here is publication PMC10278071 (ACS Chemical Biology, 2023).

The test has as its target catalytic domain of human DNMT3A ([…]) (human). Put plainly: SEC-MALS. In general terms: In gel filtration, larger molecules generally elute earlier.

B1: catalytic-like domain of DNMT3L (residues 179–379) (domain or fragment, human, UniProt Q9UJW3 179-379, looked up)
chain: FETVPVWRRQPVRVLSLFEDIKKELTSLGFLESGSDPGQLKHVVDVTDTVRKDVEEWGPFDLVYGATPPLGHTCDRPPSWYLFQFHRLLQYARPKPGSPRPFFWMFVDNLVLNKEDLDVASRFLEMEPVTIPDVHGGSLQNAVRVWSNIPAIRSRHWALVSEEELSLLAQNKQSSKLAAKWPTKLVKNCFLPLREYFKYFS
As to B1, the binding result is listed as “binds”.
